Assay results: IntAct's records for PubMed 35512704

B1: RAC-alpha serine/threonine-protein kinase (Homo sapiens), P31749 (parent)
chain: MSDVAIVKEGWLHKRGEYIKTWRPRYFLLKNDGTFIGYKERPQDVDQREAPLNNFSVAQCQLMKTERPRPNTFIIRCLQWTTVIERTFHVETPEEREEWTTAIQTVADGLKKQEEEEMDFRSGSPSDNSGAEEMEVSLAKPKHRVTMNEFEYLKLLGKGTFGKVILVKEKATGRYYAMKILKKEVIVAKDEVAHTLTENRVLQNSRHPFLTALKYSFQTHDRLCFVMEYANGGELFFHLSRERVFSEDRARFYGAEIVSALDYLHSEKNVVYRDLKLENLMLDKDGHIKITDFGLCKEGIKDGATMKTFCGTPEYLAPEVLEDNDYGRAVDWWGLGVVMYEMMCGRLPFYNQDHEKLFELILMEEIRFPRTLGPEAKSLLSGLLKKDPKQRLGGGSEDAKEIMQHRFFAGIVWQHVYEKKLSPPFKPQVTSETDTRYFDEEFTAQMITITPPDQDDSMECVDSERRPHFPQFSYSASGTA
partner: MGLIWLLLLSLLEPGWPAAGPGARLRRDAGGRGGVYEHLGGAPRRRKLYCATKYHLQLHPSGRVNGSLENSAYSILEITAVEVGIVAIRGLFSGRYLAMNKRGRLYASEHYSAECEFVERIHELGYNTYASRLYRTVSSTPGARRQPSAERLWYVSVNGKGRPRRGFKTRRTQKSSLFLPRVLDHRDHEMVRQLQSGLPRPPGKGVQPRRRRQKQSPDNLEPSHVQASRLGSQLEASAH
B2: RAC-alpha serine/threonine-protein kinase (Homo sapiens), P31749 (parent)
chain: B1 chain
partner: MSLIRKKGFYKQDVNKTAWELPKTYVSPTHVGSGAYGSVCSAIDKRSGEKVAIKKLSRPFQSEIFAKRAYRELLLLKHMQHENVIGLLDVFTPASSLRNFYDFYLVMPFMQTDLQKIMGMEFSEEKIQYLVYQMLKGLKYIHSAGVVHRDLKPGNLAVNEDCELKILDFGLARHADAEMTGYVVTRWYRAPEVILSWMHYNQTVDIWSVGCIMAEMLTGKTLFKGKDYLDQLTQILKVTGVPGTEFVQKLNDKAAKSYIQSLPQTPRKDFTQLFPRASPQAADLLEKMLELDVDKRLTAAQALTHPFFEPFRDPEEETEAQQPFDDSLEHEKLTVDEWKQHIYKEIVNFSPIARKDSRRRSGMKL
B3: RAC-alpha serine/threonine-protein kinase (Homo sapiens), P31749 (parent)
chain: B1 chain
partner: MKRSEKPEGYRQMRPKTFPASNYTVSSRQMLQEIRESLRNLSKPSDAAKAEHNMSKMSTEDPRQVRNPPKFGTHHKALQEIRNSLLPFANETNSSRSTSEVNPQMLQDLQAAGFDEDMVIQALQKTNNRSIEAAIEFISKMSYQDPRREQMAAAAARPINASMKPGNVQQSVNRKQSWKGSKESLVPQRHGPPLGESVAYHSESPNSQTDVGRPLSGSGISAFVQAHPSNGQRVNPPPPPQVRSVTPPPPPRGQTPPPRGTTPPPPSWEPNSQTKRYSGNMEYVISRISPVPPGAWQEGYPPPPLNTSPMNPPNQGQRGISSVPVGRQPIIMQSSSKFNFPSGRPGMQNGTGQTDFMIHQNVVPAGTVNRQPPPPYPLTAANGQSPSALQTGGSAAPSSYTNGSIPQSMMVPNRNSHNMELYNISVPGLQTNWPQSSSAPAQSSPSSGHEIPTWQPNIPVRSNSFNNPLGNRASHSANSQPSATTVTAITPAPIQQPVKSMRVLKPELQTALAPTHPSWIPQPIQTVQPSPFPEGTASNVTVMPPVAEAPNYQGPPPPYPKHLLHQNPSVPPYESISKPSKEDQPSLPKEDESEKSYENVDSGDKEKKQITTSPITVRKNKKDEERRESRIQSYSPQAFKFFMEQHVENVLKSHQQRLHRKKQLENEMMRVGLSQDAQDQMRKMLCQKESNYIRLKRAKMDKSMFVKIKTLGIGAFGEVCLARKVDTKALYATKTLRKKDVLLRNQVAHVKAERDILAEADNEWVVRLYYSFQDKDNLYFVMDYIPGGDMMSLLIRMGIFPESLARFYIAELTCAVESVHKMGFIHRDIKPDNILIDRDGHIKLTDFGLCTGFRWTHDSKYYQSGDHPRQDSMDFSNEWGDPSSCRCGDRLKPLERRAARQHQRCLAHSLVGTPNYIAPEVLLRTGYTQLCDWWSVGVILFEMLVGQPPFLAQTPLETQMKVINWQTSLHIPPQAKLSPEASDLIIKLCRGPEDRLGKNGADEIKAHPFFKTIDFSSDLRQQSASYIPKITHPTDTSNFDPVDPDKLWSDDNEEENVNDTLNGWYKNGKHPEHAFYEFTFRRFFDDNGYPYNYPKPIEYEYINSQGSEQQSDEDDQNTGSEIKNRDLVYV
B4: RAC-alpha serine/threonine-protein kinase (Homo sapiens), P31749 (parent)
chain: B1 chain
partner: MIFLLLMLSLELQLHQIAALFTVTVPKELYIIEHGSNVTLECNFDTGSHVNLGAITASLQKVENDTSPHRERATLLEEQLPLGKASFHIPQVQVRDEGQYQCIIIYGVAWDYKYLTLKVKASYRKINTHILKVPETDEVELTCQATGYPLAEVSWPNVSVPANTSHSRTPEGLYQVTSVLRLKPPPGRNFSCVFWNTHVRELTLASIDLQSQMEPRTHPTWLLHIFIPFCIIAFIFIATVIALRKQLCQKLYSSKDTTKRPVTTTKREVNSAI
B5: RAC-alpha serine/threonine-protein kinase (Homo sapiens), P31749 (parent)
chain: B1 chain
partner: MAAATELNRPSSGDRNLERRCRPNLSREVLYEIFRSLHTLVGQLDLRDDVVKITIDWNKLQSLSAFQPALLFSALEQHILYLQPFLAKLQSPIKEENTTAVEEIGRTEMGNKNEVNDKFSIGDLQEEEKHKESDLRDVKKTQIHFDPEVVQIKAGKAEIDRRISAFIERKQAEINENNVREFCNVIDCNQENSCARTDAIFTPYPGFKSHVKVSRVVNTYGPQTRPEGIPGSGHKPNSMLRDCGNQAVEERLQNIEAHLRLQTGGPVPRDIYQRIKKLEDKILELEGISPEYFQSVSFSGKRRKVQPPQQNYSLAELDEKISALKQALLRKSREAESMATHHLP
B6: RAC-alpha serine/threonine-protein kinase (Homo sapiens), P31749 (parent)
chain: B1 chain
partner: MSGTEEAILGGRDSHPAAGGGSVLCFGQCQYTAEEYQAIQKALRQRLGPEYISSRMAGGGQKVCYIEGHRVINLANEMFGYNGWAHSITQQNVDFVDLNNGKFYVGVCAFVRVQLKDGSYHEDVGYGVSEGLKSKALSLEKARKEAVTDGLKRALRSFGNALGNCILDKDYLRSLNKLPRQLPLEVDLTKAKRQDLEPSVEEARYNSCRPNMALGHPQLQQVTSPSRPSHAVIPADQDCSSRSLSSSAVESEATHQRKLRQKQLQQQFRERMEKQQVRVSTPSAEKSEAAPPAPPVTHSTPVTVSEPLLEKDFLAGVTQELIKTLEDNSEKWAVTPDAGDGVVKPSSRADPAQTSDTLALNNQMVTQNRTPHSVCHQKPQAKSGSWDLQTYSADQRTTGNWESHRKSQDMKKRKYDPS
B7: RAC-alpha serine/threonine-protein kinase (Homo sapiens), P31749 (parent)
chain: B1 chain
partner: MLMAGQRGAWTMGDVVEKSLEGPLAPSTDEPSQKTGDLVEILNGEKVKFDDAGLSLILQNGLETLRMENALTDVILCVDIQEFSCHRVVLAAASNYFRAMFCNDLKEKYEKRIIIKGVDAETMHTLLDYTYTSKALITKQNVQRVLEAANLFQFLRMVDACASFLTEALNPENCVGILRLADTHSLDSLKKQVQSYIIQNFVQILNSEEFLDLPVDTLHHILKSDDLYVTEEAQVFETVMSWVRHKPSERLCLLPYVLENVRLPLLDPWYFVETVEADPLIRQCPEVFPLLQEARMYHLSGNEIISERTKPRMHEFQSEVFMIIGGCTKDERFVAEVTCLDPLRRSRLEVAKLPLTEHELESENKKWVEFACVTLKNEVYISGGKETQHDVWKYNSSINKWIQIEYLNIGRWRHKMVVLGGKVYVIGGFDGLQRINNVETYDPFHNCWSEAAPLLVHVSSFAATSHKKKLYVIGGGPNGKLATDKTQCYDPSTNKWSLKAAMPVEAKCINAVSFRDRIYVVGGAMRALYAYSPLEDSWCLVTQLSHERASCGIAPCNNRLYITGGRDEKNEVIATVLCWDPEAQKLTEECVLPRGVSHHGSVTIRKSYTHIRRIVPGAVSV
B8: RAC-alpha serine/threonine-protein kinase (Homo sapiens), P31749 (parent)
chain: B1 chain
partner: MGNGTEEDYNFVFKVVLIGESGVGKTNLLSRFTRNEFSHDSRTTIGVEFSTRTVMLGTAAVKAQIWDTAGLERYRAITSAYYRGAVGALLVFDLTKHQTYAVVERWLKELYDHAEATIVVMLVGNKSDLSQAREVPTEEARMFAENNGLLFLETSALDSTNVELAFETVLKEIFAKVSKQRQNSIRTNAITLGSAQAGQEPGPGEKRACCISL

Variants of: B1
Conditions: with fgf3_human FGF3, P11487

Row | Variant | effect of a mutation on the interaction
1 | E17K | causing an interaction

Variants of: B2
Conditions: with mk13_human MAPK13, O15264

Row | Variant | effect of a mutation on the interaction
2 | E17K | causing an interaction

Variants of: B2
Conditions: with mk13_human MAPK13, O15264
Remark: another data set of the same source

Row | Variant | effect of a mutation on the interaction
3 | E17K | increasing interaction strength

Variants of: B3
Conditions: with lats1_human LATS1, O95835

Row | Variant | effect of a mutation on the interaction
4 | E17K | causing an interaction

Variants of: B4
Conditions: with pd1l2_human PDCD1LG2, Q9BQ51

Row | Variant | effect of a mutation on the interaction
5 | E17K | with no effect

Variants of: B5
Conditions: with mbip1_human MBIP

Row | Variant | effect of a mutation on the interaction
6 | E17K | with no effect

Variants of: B6
Conditions: with rad52_human RAD52, P43351

Row | Variant | effect of a mutation on the interaction
7 | E17K | with no effect

Variants of: B7
Conditions: with klhl6_human KLHL6, Q8WZ60

Row | Variant | effect of a mutation on the interaction
8 | E17K | causing an interaction

Variants of: B7
Conditions: with klhl6_human KLHL6, Q8WZ60
Remark: another data set of the same source

Row | Variant | effect of a mutation on the interaction
9 | E17K | increasing interaction strength

Variants of: B8
Conditions: with rab25_human RAB25, P57735

Row | Variant | effect of a mutation on the interaction
10 | E17K | with no effect
